AlphaSeq binding of Ab-14 light chain variants to a spike HR2 peptide

From the AlphaSeq antibody data of Engelhart et al. 2022 (doi:10.1038/s41597-022-01779-4), copy in the FLAb collection.

The target is the same throughout: PDVDLGDISGINAS, from the HR2 region of SARS-CoV-2 spike.

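The parent was found by panning a naive human phage display library on the peptide. Library AAYL50 holds single substitutions and randomly drawn double and triple substitutions in the CDRs. The scFvs were displayed on barcoded MATa yeast, the peptide on MATalpha yeast. After mating in shaken culture at 30 °C for 16 h, diploids were selected and their barcode pairs sequenced. Read counts were normalised to the haploid input and turned into Kd by a linear fit to BCL2-family pairs of known affinity, for each replicate. Mating was done three times.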

Ab-14 is the parent antibody, in scFv form: VH, then the linker GGGGSGGGGSGGGGS, then VL. The heavy chain is unchanged in all variants.
VH: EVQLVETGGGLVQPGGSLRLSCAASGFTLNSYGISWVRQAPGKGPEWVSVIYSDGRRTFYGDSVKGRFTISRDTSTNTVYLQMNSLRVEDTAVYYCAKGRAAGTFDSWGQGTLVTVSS
VL: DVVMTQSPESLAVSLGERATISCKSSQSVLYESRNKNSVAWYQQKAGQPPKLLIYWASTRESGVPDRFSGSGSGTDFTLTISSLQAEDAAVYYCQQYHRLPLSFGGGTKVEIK

The parent's light chain CDRs are KSSQSVLYESRNKNSVA, WASTRES, QQYHRLPLS; each variant's own CDRs replace them letter for letter.
All variants listed here change Q96 of the VL, counted from its first residue.
Each Kd is an estimate from the mating assay, the geometric mean of the replicates in which the pair was seen; lower is stronger.
"nd" marks a missing value. The strain was present, yet no cells mated with the target were sequenced in any replicate, which points to weak or no binding.
Three control strains display no target. For library AAYL50, 18% of the pairings with them gave a signal, with a median of 15 µM and one signal in twenty below 970 nM, so weak values seen in few replicates may be background. The control count says in how many pairings with the empty strains this scFv gave a signal.

For KSSQSVLYESRNKNSVA | WASTRES | QRYHRLPYA, the assay gave 34 nM (3 of 3 replicates; controls 3 of 9). With KSSQSVLYESRNENSVA | WASTRES | QDYHRLPLI the result was 12 nM (3 of 3 replicates; controls 0 of 9). With KSSMSVLYESRNKNSVA | WAETRES | QFYHRLPLS the result was 37 nM (3 of 3 replicates; controls 2 of 9). With KSSQSVLYESRNKNSVA | WASTRES | QGPHRLCLS the result was nd (0 of 3 replicates; controls 2 of 9). Variant KSSQSVLYESRNKNSVA | WDSTRES | QDKHRLPLS showed 67 nM (3 of 3 replicates; controls 1 of 9). With KSSQSVLYESRNKNSVI | WASTRES | QGYHRLPMS the result was nd (0 of 3 replicates; controls 0 of 9). For KSSQSVLYESRNKNSRA | YASTRES | QRYHRLPLS, the assay gave 16 µM (2 of 3 replicates; controls 3 of 9).

Variant KSSQSVLYESRNKNSVA | WASTREM | QGYARLPLS gave 6.3 nM (3 of 3 replicates; controls 3 of 9). Variant KSSQSVLYESGNKNSVA | WASTRES | CAYHRLPLS gave 2.1 µM (1 of 3 replicates; controls 0 of 9). For KSSQMDLYESRNKNSVA | WASTRES | QNYHRLPLS, the assay gave 2.0 nM (3 of 3 replicates; controls 3 of 9). Variant KSSQSVLYRSRNKNSVA | WASTRES | QPYHRLPLS showed 340 µM (2 of 3 replicates; controls 4 of 9). Variant KSSQSVLYESPNKNSVA | WACTRES | QTYHRLPLS showed nd (0 of 3 replicates; controls 0 of 9). Variant KSSDSVLIESRNKNSVA | WASTRES | QNYHRLPLS showed 34 nM (3 of 3 replicates; controls 1 of 9). With KSSQSVLYESRNKNSVA | WASTRES | IGYHRLPLE the result was 7.5 nM (3 of 3 replicates; controls 0 of 9).

With KSSQSVLYKSRNKNSVA | WASTRES | QCYFRLPLS the result was 1.1 µM (3 of 3 replicates; controls 2 of 9). Variant KSSQSVNYESRNKMSVA | WASTRES | QVYHRLPLS showed 18 µM (1 of 3 replicates; controls 0 of 9). With KSSQSVLPESRNKSSVA | WASTRES | QPYHRLPLS the result was 4.0 µM (3 of 3 replicates; controls 1 of 9). With KSSYSVLYESRNKNSVA | WASTRES | QMYHRDPLS the result was 10 nM (3 of 3 replicates; controls 0 of 9). Variant KSSNSVLYESRNKNHVA | WASTRES | QGYHRLPLS gave 90 nM (3 of 3 replicates; controls 1 of 9). Variant KSSQSVLYESRNKNSVA | WMSTLES | QLYHRLPLS gave nd (0 of 3 replicates; controls 0 of 9). With KSSQSVLYGSRNKNSVA | WASTRES | QLYHALPLS the result was 46 nM (3 of 3 replicates; controls 0 of 9).

With KSSQSVLYESMNKNSVA | WASTREF | QEYHRLPLS the result was 85 nM (3 of 3 replicates; controls 7 of 9). Variant KSSQSVLYESRNKNSVA | WASTRES | QYYHRLPIS gave nd (0 of 3 replicates; controls 0 of 9). Variant KSSQSVLYESRNKNSVA | WASTRES | QAYHRLPLS gave 20 nM (3 of 3 replicates; controls 3 of 9). Variant KSSQYVLYESRNKNSVA | WASTRES | QWLHRLPLS showed 940 nM (3 of 3 replicates; controls 1 of 9). With KSSQSVLYESRNKNNVA | WASTRPS | QVYHRLPLS the result was 210 nM (3 of 3 replicates; controls 2 of 9). Variant KSSQSVLYESRNKNSVA | WASTRES | QFYHRLPLS gave 130 nM (3 of 3 replicates; controls 0 of 9). With KSSQSVLYESHNKNSVA | WASTRES | QRYHRLPLS the result was 39 µM (2 of 3 replicates; controls 3 of 9).

With KSSQAVLYEWRNKNSVA | WASTRES | QCYHRLPLS the result was nd (0 of 3 replicates; controls 1 of 9). Variant KSSQSVLYESRGKNSVA | VASTRES | QDYHRLPLS gave 5.2 µM (2 of 3 replicates; controls 1 of 9). With KSSQSVLYESRRQNSVA | WASTRES | QSYHRLPLS the result was 5.8 nM (3 of 3 replicates; controls 4 of 9). Variant KSSQSVLYESRNKNSVA | WASTRES | QYYHALPLS showed 3.9 µM (1 of 3 replicates; controls 0 of 9). Variant KSSQSVLYESRNKNSVA | WVSPRES | QEYHRLPLS gave nd (0 of 3 replicates; controls 2 of 9). For KSSQSVLYESRNKNSVA | WASTRES | QKYHRLPLS, the assay gave nd (0 of 3 replicates; controls 0 of 9). For KSSQSVLYESRNKNSVA | WASTRIS | QSYHRLRLS, the assay gave 14 nM (3 of 3 replicates; controls 0 of 9).

With KSSQSVLYESRNKNSWA | WASTRES | YTYHRLPLS the result was 25 µM (1 of 3 replicates; controls 5 of 9). For KSSQSVLYNSRNKNSVA | WASTREA | QYYHRLPLS, the assay gave 5.7 nM (3 of 3 replicates; controls 1 of 9). Variant KSSQSVLYINRNKNSVA | WASTRES | QLYHRLPLS gave nd (0 of 3 replicates; controls 1 of 9). For KSSQSVLYESRNKNSVA | WFSTRES | QNYHRLPLS, the assay gave nd (0 of 3 replicates; controls 3 of 9). Variant KSSQSVLYESRNKNSVA | WASTRQS | QLYHRLPLS showed nd (0 of 3 replicates; controls 0 of 9). Variant KSSQSVLYESRNKNSVA | AASTRES | FTYHRLPLS showed nd (0 of 3 replicates; controls 0 of 9). Variant KSSQSWLYESRNKNSVA | WASTRES | QRYHRLPLS gave 50 nM (3 of 3 replicates; controls 0 of 9).

Variant KSSQSVLYESRNKNSVM | WASTRES | QNYHWLPLS gave nd (0 of 3 replicates; controls 1 of 9). With KTSQSHLYESRNKNSVA | WASTRES | QLYHRLPLS the result was nd (0 of 3 replicates; controls 1 of 9). Variant KSSQSVLYESRNKNSVA | VASTRES | QYYHRLPLS gave nd (0 of 3 replicates; controls 0 of 9). Variant KSSQSVLYESRNKNQVA | WASTRES | QEYHRLPLI gave 410 nM (3 of 3 replicates; controls 7 of 9). With KSSQSVLYDSRNKNSVA | WAQTRES | QRYHRLPLS the result was 10 nM (3 of 3 replicates; controls 0 of 9).

The 7 strongest on average among those seen in every replicate, once more:

The variant KSSQMDLYESRNKNSVA | WASTRES | QNYHRLPLS showed 2.0 nM (3 of 3 replicates; controls 3 of 9).
The variant KSSQSVLYNSRNKNSVA | WASTREA | QYYHRLPLS showed 5.7 nM (3 of 3 replicates; controls 1 of 9).
The variant KSSQSVLYESRRQNSVA | WASTRES | QSYHRLPLS showed 5.8 nM (3 of 3 replicates; controls 4 of 9).
The variant KSSQSVLYESRNKNSVA | WASTREM | QGYARLPLS showed 6.3 nM (3 of 3 replicates; controls 3 of 9).
The variant KSSQSVLYESRNKNSVA | WASTRES | IGYHRLPLE showed 7.5 nM (3 of 3 replicates; controls 0 of 9).
The variant KSSYSVLYESRNKNSVA | WASTRES | QMYHRDPLS showed 10 nM (3 of 3 replicates; controls 0 of 9).
The variant KSSQSVLYDSRNKNSVA | WAQTRES | QRYHRLPLS showed 10 nM (3 of 3 replicates; controls 0 of 9).

For reference, the parent read 4.4 nM as the reference entry and 48 nM as a member of this library.